What was measured:
[1] = target: T1, human TREM1 on the cell surface (neutrophils, monocytes, transfected HEK293 cells) (human, UniProt Q9NP99 21-234); assay: cell-based or functional assay
[2] = target: T1, human TREM1 on the cell surface …; assay: flow cytometry, enriched human primary neutrophils (CD45+/CD66abce+), AF647-labelled antibody, three donors
[3] = target: T1, human TREM1 on the cell surface …; assay: cell-based or functional assay; remark: listed apart in the source
[4] = target: T2, recombinant monovalent human TREM1-ECD (human, UniProt Q9NP99 21-205); assay: BLI; antibody on AHC sensor, monovalent TREM1-ECD in solution
T2 construct: the whole entry is named; also called monomeric human TREM1-ECD protein
Source text: (§1) Sensors were monitored to establish a baseline.
(§2) The coefficient of determination of the 1:1 model fit to the BLI sensorgrams is represented by the R\hat{ }2 value. Data for human and cynomolgus monkey represents averages across three replicates. Data for pig, dog, rabbit, rat, and mouse represents averages across two replicates.

By UniProt entry, the sequences of proteins in these tests, tags left out. Residues count along the entry.
UniProt Q9NP99, 21-234 limits assumed: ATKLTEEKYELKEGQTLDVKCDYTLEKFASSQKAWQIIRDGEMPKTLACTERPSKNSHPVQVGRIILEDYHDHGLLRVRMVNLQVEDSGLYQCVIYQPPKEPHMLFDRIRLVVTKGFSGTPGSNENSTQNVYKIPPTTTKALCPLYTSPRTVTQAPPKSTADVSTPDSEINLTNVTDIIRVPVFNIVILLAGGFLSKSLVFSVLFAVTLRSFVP
UniProt Q9NP99, 21-205 limits assumed: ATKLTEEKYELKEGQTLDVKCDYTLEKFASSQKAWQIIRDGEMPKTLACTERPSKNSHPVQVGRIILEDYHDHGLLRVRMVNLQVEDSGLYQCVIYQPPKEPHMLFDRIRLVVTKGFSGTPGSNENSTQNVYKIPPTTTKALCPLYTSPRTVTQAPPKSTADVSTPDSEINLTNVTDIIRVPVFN

[5] = target: T3, recombinant monovalent cynomolgus monkey TREM1-ECD (cynomolgus monkey); assay: as above
T3 construct: whole entry named; also called cyno TREM1-ECD
T3 chain: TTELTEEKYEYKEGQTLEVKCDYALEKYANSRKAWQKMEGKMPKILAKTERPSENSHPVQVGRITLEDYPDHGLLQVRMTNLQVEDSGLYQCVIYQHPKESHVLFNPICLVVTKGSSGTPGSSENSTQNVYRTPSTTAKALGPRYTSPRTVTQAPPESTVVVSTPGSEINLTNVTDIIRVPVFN
Source text: as §1, §2

[6] = target: T1, human TREM1 on the cell surface …; assay: flow cytometry, TREM1 receptor occupancy on enriched human monocytes activated with peptidoglycan (100 ng/ml) and PGLYRP1 (500 nM), 24 h
[7] = target: T1, human TREM1 on the cell surface …; assay: flow cytometry, enriched human primary monocytes (CD45+/CD14+), AF647-labelled antibody, four donors per legend

B1: anti-TREM1 antibody agent clone A (antibody, human IgG1, kappa)
heavy: EVQLVESGGVLVQPGGSLRLSCAASGITFSNSWMSWVRQAPGKGLEWVANIKQDGSEKYYVDSVKGRFTISRDNAKESLFLQMNSLRAEDTAVYYCARGGISTFDIWGQGTMVTVSSASTKGPSVFPLAPSSKSTSGGTAALGCLVKDYFPEPVTVSWNSGALTSGVHTFPAVLQSSGLYSLSSVVTVPSSSLGTQTYICNVNHKPSNTKVDKKVEPKSCDKTHTCPPCPAPPVAGPSVFLFPPKPKDTLMISRTPEVTCVVVDVSHEDPEVKFNWYVDGVEVHNAKTKPREEQYNSTYRVVSVLTVLHQDWLNGKEYKCKVSNKALPAPIEKTISKAKGQPREPQVYTLPPSRDELTKNQVSLTCLVKGFYPSDIAVEWESNGQPENNYKTTPPVLDSDGSFFLYSKLTVDKSRWQQGNVFSCSVMHEALHNHYTQKSLSLSPGK
light: not shown
notes: heavy chain carries the IgG1 constant region with PVAdelG, light chain is kappa; also called anti-TREM1 clone A; Anti-TREM1 Antibody Clone A
IC50, inhibition of CCL3 secretion by primary human monocytes stimulated with PGN and PGLYRP1 [1]: 0.0215 nM | IC50, inhibition of CCL4 secretion by primary human monocytes stimulated with PGN and PGLYRP1 [1]: 0.0689 nM | IC50, inhibition of IL-1β secretion by primary human monocytes stimulated with PGN and PGLYRP1 [1]: 0.0188 nM | IC50, inhibition of IL-6 secretion by primary human monocytes stimulated with PGN and PGLYRP1 [1]: 0.0244 nM | IC50, inhibition of IL-23 secretion by primary human monocytes stimulated with PGN and PGLYRP1 [1]: 0.0155 nM | IC50, inhibition of TNFα secretion by primary human monocytes stimulated with PGN and PGLYRP1 [1]: 0.0181 nM | EC50 (read off the curve) [2]: ~0.2 nM | IC50, inhibition of CCL3 secretion by primary human neutrophils stimulated with PGN and PGLYRP1 [3]: 0.0223 nM | IC50, inhibition of CCL4 secretion by primary human neutrophils stimulated with PGN and PGLYRP1 [3]: 0.0249 nM | IC50, inhibition of IL-8 secretion by primary human neutrophils stimulated with PGN and PGLYRP1 [3]: 0.0223 nM | Kd [4]: 0.21 nM | Maximum BLI response [4]: 0.385 nm | koff [4]: 9.2e-05 s⁻¹ | kon [4]: 421000 M⁻¹ s⁻¹ | koff [5]: 0.00077 s⁻¹ | kon [5]: 392000 M⁻¹ s⁻¹ | EC50 (read off the curve) [6]: ~0.04 nM | EC50 (read off the curve) [7]: ~0.1 nM

Reference: patent US20260242465A1 (CELSIUS THERAPEUTICS, published 2026)
